Laboratory results taken from ChEMBL document CHEMBL3639003, “Heteroaryloxycarbocyclyl compounds as PDE10 inhibitors” (2015).

The chains behind the UniProt entries cited, without tags or fusion partners. Where a name states a change or a piece, a line headed by the entry shows the natural chain unless it says otherwise.
UniProt Q9Y233: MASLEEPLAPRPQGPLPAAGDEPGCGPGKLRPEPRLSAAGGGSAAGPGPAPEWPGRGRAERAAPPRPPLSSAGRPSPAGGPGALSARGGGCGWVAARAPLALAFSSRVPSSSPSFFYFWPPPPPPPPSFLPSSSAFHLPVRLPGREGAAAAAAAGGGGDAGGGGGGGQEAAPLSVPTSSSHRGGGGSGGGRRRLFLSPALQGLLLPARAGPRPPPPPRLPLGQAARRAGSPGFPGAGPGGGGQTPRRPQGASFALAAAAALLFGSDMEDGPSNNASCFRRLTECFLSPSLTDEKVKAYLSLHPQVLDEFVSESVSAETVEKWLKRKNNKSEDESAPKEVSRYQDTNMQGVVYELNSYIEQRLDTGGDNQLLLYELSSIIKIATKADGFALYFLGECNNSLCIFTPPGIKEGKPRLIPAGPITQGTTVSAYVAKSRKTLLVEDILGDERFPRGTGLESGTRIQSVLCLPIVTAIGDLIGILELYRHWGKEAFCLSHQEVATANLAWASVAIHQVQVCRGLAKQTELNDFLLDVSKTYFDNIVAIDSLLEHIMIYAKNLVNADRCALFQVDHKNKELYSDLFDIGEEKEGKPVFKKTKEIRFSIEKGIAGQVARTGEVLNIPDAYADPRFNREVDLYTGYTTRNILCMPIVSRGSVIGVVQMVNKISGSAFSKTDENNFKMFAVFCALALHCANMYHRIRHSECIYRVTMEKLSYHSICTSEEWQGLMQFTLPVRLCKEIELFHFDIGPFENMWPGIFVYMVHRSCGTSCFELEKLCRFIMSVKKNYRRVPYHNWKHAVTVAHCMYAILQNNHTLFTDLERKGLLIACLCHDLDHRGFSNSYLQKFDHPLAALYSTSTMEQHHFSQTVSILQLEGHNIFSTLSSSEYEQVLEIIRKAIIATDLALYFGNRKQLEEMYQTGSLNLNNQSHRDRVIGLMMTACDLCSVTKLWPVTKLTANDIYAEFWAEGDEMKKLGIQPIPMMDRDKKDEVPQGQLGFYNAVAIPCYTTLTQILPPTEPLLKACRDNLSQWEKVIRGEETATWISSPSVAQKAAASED

Target: cAMP and cAMP-inhibited cGMP 3',5'-cyclic phosphodiesterase 10A (Homo sapiens, UniProt Q9Y233)
Experiment: IMAP TR-FRET Assay: Enzyme Activity. An IMAP TR-FRET assay was used to analyze the enzyme activity (Molecular Devices Corp., Sunnyvale Calif.). 5 uL, of serial diluted PDE10A (BPS Bioscience, San Diego, Calif.) or tissue homogenate was incubated with equal volumes of diluted fluorescein labeled cAMP or cGMP for 60 min in 384-well polystyrene assay plates (Corning, Corning, N.Y.) at room temperature. After incubation, the reaction was stopped by adding 60 uL, of diluted binding reagents and was incubated for 3 hours to overnight at room temperature. The plates were read on an Envision (Perkin Elmer, Waltham, Mass.) for time resolved fluorescence resonance energy transfer. The data were analyzed with GraphPad Prism (La Jolla, Calif.).Enzyme Inhibition. To check the inhibition profile, 5 uL, of serial diluted compounds were incubated with 5 uL, of diluted PDE10 enzyme (BPS Bioscience, San Diego, Calif.) or tissue homogenate in a 384-well polystyrene assay plate (Corning, Corning, N.Y.).

## CC(=O)c1ccc(-c2nccnc2O[C@H]2C[C@@H](Nc3nc4ccccc4s3)C2)cn1
  IC50: 2.74 nM
